PubChem BioAssay (NCI)
Some results for these compounds are left out of this collection, so the calls shown say nothing about other tests.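 Assay format: 96-well plates, 48-hour exposure. GI50 marks 50% less growth.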

What was measured:
Test in all cases: growth of human tumour cells (NCI), 48 h; in the data active = GI50 below about 0.43 µM; inactive = the rest
[1] = test system: SF-268 CNS
[2] = test system: MDA-N
[3] = test system: A498 renal
[4] = test system: MOLT-4 leukemia
[5] = test system: SN12C renal
[6] = test system: UACC-62 melanoma
[7] = test system: A549 NSCLC
[8] = test system: UO-31 renal
[9] = test system: HT29 colon
[10] = test system: NCI-H23 lung
[11] = test system: OVCAR-4 ovarian
[12] = test system: SF-295 CNS
[13] = test system: U251 CNS
[14] = test system: SK-OV-3 ovarian
[15] = test system: 786-0 renal
[16] = test system: LOX IMVI melanoma
[17] = test system: CCRF-CEM leukemia
[18] = test system: MDA-MB-435
[19] = test system: ACHN renal
[20] = test system: TK-10 renal
[21] = test system: SK-MEL-5 melanoma
[22] = test system: SNB-19 CNS
[23] = test system: RPMI-8226 leukemia
[24] = test system: KM12 colon
[25] = test system: IGROV1 ovarian
[26] = test system: MCF7 breast
[27] = test system: NCI-H522 lung
[28] = test system: RXF 393 renal
[29] = test system: BT-549 breast
[30] = test system: HL-60(TB) leukemia
[31] = test system: UACC-257 melanoma
[32] = test system: SK-MEL-28 melanoma
[33] = test system: K-562 leukemia
[34] = test system: COLO 205 colon
[35] = test system: PC-3 prostate
[36] = test system: HCT-116 colon
[37] = test system: HS 578T breast
[38] = test system: T-47D breast
[39] = test system: MDA-MB-231 breast
[40] = test system: NCI/ADR-RES ovarian
[41] = test system: SW-620 colon
[42] = test system: HCT-15 colon
[43] = test system: NCI-H226 lung
[44] = test system: HOP-62 NSCLC
[45] = test system: M14 melanoma
[46] = test system: SK-MEL-2 melanoma
[47] = test system: DU-145 prostate
[48] = test system: SR leukemia
[49] = test system: MALME-3M melanoma
[50] = test system: OVCAR-8 ovarian
[51] = test system: OVCAR-5 ovarian
[52] = test system: SNB-75 CNS
[53] = test system: HCC-2998 colon
[54] = test system: NCI-H322M lung
[55] = test system: NCI-H460 lung
[56] = test system: OVCAR-3 ovarian

Measured: GI50

O=C(OCCC1=C2CCN(CC2)C1)C(O)(c1ccccc1)C1CCCC1 (stereo unspecified)
inactive: [1] 0.693 µM | [2] 34.5 µM | [3] 32.7 µM | [4] 2.72 µM | [5] 62.3 µM | [6] 18.1 µM | [7] 24.4 µM | [8] 28.6 µM | [9] 28.3 µM | [10] 86 µM | [11] 50.5 µM | [12] 21 µM | [13] 41.6 µM | [14] > 100 µM | [15] 17.8 µM | [16] 29.2 µM | [17] 3.43 µM | [18] 36 µM | [19] 23.8 µM | [20] > 100 µM | [21] 12.5 µM | [22] 58.7 µM | [23] 21.3 µM | [24] 30.8 µM | [25] 79.2 µM | [26] 21.5 µM | [27] 36 µM | [28] 26.4 µM | [29] 29.1 µM | [30] 20 µM | [31] 21.5 µM | [32] 23.4 µM | [33] 2.6 µM | [34] 18.2 µM | [35] 36.1 µM | [36] 22.1 µM | [37] 31.6 µM | [38] 24 µM | [39] 35.7 µM | [40] 46.2 µM | [41] 20.1 µM | [42] 26.6 µM | [43] 31 µM | [44] 21.5 µM | [45] 17 µM | [46] 24 µM | [47] > 100 µM | [48] 27 µM | [49] 24.7 µM | [50] > 100 µM | [51] 36.5 µM | [52] 27.7 µM | [53] 29.3 µM | [54] 76.4 µM | [55] 38.2 µM | [56] 94.4 µM
